Values quoted from earlier work as cited in patent US20230382900A1, “INHIBITORS OF BTK” (Newave Pharmaceutical Inc., priority 2020, published 2023).

The chains behind the UniProt entries cited, without tags or fusion partners.
UniProt Q06187, whole entry, species assumed: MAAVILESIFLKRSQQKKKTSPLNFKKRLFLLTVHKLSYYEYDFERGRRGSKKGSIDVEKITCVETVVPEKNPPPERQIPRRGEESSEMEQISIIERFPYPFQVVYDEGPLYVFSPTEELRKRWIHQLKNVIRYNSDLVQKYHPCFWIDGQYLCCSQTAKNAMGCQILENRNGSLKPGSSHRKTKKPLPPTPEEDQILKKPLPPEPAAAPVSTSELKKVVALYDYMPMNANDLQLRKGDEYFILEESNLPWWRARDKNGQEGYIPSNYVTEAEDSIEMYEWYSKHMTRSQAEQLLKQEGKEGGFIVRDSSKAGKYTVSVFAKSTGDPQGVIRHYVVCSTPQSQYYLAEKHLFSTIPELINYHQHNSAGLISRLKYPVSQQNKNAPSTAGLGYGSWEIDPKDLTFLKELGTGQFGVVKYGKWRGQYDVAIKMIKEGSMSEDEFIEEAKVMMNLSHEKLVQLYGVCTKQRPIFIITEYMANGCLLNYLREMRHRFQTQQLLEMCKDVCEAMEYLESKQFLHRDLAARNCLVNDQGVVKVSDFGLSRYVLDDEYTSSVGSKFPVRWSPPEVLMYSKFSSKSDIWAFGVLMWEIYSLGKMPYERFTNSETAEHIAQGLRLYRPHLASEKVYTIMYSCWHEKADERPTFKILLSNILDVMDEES

Target: Bruton's tyrosine kinase (BTK) (Homo sapiens, UniProt Q06187)
Conditions: read-out: IC50s for basophil activation, B cell receptor activation, and constitutive p-BTK activity in whole blood lysates; cited from earlier work

Compound: C[C@H]1CN(C2COC2)CCN1c1ccc(Nc2cc(-c3ccnc(N4CCn5c(cc6c5CC(C)(C)C6)C4=O)c3CO)cn(C)c2=O)nc1 [GDC-0853]
- IC50: 2 to 9 nM
